Key:
[1] = test system: cultured rat pituitary cells; assay: Stimulation of secretion of ACTH and β-endorphin by cultured rat pituitary cells (procedure of Endocrinology, 91, 562 (1972)); assay type: cell-based; details: testing in accordance with the general procedure set forth hereinbefore; result in words
From the text: This synthetic peptide is examined for its effects on the secretion of ACTH and β-endorphin in vitro and also in vivo.

[2] = Lowering of blood pressure; assay type: in vivo; details: result in words; method details not given

CCCC[C@H](NC(=O)[C@H](CCC(=O)O)NC(=O)[C@H](CC(C)C)NC(=O)[C@@H](NC(=O)[C@H](CCC(=O)O)NC(=O)[C@H](CCCNC(=N)N)NC(=O)[C@H](CC(C)C)NC(=O)[C@H](CC(C)C)NC(=O)[C@H](Cc1c[nH]cn1)NC(=O)[C@@H](Cc1ccccc1)NC(=O)[C@@H](NC(=O)[C@H](CC(C)C)NC(=O)[C@H](CC(=O)O)NC(=O)[C@H](CC(C)C)NC(=O)[C@H](CO)NC(=O)[C@@H](NC(=O)[C@@H]1CCCN1C(=O)[C@@H]1CCCN1C(=O)[C@H](CCC(=O)O)NC(=O)[C@H](CCC(N)=O)NC(=O)[C@@H](N)CO)[C@@H](C)CC)[C@@H](C)O)C(C)C)C(=O)N[C@H](C(=O)N[C@@H](CCCCN)C(=O)N[C@@H](C)C(=O)N[C@@H](CC(=O)O)C(=O)N[C@@H](CCC(N)=O)C(=O)N[C@@H](CC(C)C)C(=O)N[C@@H](C)C(=O)N[C@@H](CCC(N)=O)C(=O)N[C@@H](CCC(N)=O)C(=O)N[C@@H](C)C(=O)N[C@@H](Cc1c[nH]cn1)C(=O)N[C@@H](CO)C(=O)N[C@@H](CC(N)=O)C(=O)N[C@@H](CCCNC(=N)N)C(=O)N[C@@H](CCCCN)C(=O)N[C@@](C)(CC(C)C)C(=O)N[C@@H](CCCC)C(=O)N[C@@H](CC(=O)O)C(=O)N[C@H](C(=O)N[C@@H](C)C(N)=O)[C@@H](C)CC)[C@@H](C)O [V, [D-Phe^12, Nle^21,38, CML^37]-oCRF]
secretion of ACTH and β-END-LI [1]: stimulates the secretion of ACTH and β-END-LI
lowering of blood pressure [2]: very significant lowering of blood pressure
